Source: US12428408B2, “Fused heterocyclic mescaline derivatives” (Enveric Biosciences Canada Inc., priority 2022, dated 2025)

By UniProt entry, the sequences of proteins in these tests, tags left out.
UniProt P23975, whole entry: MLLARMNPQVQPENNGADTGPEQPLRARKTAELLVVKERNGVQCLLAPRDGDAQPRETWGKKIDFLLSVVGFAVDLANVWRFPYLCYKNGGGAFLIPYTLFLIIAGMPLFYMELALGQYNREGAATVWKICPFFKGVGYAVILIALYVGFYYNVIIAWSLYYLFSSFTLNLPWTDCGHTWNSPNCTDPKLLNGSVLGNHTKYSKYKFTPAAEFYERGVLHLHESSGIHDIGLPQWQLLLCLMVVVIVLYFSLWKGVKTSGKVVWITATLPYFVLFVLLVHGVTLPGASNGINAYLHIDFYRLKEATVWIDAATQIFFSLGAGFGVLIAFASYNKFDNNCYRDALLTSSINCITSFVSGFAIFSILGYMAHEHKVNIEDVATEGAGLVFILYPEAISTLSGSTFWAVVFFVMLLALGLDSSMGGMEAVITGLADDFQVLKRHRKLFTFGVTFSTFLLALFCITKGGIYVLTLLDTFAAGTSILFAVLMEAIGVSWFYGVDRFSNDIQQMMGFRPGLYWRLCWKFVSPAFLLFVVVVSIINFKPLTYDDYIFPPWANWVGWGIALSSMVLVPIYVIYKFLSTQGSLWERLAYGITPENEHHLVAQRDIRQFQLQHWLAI

Biological target: T1, NET (h) (Homo sapiens, UniProt P23975)
T1 construct: host or cells: CHO cells
Test: Competition assay to measure binding affinity at norepinephrine transporter (NET)
Details: test ligand 10 μM; [3H]nisoxetine 1 nM

CC(NC(C)(C)C)C(=O)c1cccc(Cl)c1 (stereo not shown) [Bupropion, reference compound]
NET, percent of control-specific binding: 12%
